Reference: US5705518A, “Method of activating photosensitive agents” (University of British Columbia, priority 1995, dated 1998)
Like-named read-outs stand apart in the source and are kept apart here.

System: M-1 (murine rhabdomyosarcoma) tumor
Assay type: in vivo, DBA/2 mice
Conditions: for tumor eradication / tumor palpability: light 15 min post injection
Experimental: BPD-MA was synthesized as described in U.S. Pat. No. 4,920,143 and 4,883,790, incorporated herein by reference. BPD-MA was obtained from QuadraLogic Technologies, Inc. and stored dissolved in DMSO (4.5 mg/ml) at -70° C. Liposomal BPD (4.95 mg/ml) was prepared as described in U.S. application Ser. No. 07/832,542, filed Feb. 5, 1992. The following formula was used: […]
Liposomal BPD was dried and stored frozen at -20° C. in 1 ml aliquots. The appropriate number of aliquots were thawed immediately before use and diluted with 5% dextrose in water for injection into the animals.
Male DBA/2 mice (7-11 weeks old; Charles River Laboratories, St. Constant, Quebec, Canada) were used in these studies, unless otherwise specified. Shaving and depilation removed the hair very effectively from appropriate body surfaces. The mice were shaved and depilated with a commercially available depilator (Nair®) at least one day before being used in the experiments. Following injection the mice were kept in the dark for various lengths of time, as described below. Before and after the experiments the mice were kept in an animal facility with 12 hours of light and 12 hours of dark daily.
An argon pumped dye laser, whose power source was obtained from Spectra Physics (Series 2000, Mountain View, Calif.) and whose 5W argon ion pumped dye laser was obtained from Coherent (Model 599, Palo Alto, Calif.) was used to deliver a columnated beam of light having a wavelength of 690 (±3) nm. The argon laser was aimed at the skin to irradiate the tumor. The time of light exposure was varied to give different light doses, such as 50, 75 and 100 Joules/cm^2.
DBA/2 mice (weight 22±1 g) were used in this study. First, mice were injected in the flank with M-1 (murine rhabdomyosarcoma) tumor cells and the tumors were allowed to grow to about 5mm in diameter, according to the protocol of Richter et al., Br. J. Cancer (1991) 63:87-93. Mice were injected with liposomal BPD-MA and kept in the dark for 15 minutes before exposure to light. The mice were then treated with the laser.

[1] = 0.5 mg/kg BPD-MA, 75 J/cm^2, 24 hours (FIG. 2)
[2] = 1 mg/kg BPD-MA, 100 J/cm^2, 48 hours (FIG. 1)

Substance: benzoporphyrin derivative monoacid ring A [BPD-MA]
- tumor eradication [1]: the tumor was eradicated
- tumor palpability [1]: The tumor was not palpable
- tumor eradication [2]: the tumor was eradicated
- tumor palpability [2]: The tumor was not palpable
- tumor regrowth (both animals (FIGS. 1 and 2), followed two weeks): The tumors did not grow back
- skin damage, comparison of FIG. 2 with FIGS. 1 and 3 (mouse, in vivo): reduction in skin damage
- skin healing (mouse, in vivo): flat, healing area of skin
